Literature values, collected in publication PMC9654333, “AmyP53, a Therapeutic Peptide Candidate for the Treatment of Alzheimer’s and Parkinson’s Disease: Safety, Stability, Pharmacokinetics Parameters and Nose-to Brain Delivery” (International Journal of Molecular Sciences, 2022).

Design: method as in PMID 22963731, PMID 23444784, PMID 33551991, PMID 17720549, PMID 15728733
Details: therapeutic peptides delivered to the brain via the intranasal route; cited from earlier work

Substance: β-IFN: therapeutic peptide delivered to the brain via the intranasal route, 166 aa
- pHi: 8.9
